pIC50: −log10 of the molar value.
Legend:
[1] = biological target: T1, serotonin S2 (5-HT2) receptors (Rattus norvegicus, UniProt P14842); assay: inhibition of 3H-ketanserin binding to serotonin S2 (5-HT2) receptors in rat cortex in vitro; conditions: 3H-ketanserin 0.5 nM, rat cortex membranes, read-out: Binding IC50, 3H Ket.
T1 construct: cortical tissue is dissected and weighed; from tissue; host or cells: cerebral cortex membranes of male Wistar (Mol:Wist) rats
Method: INHIBITION OF ^3 H-KETANSERIN BINDING TO SEROTONIN S2 (5-HT2)RECEPTORS IN RAT CORTEX IN VITRO
By this method the inhibition by drugs of the binding of ^3 H-Ketanserin (0.5 nM) to Serotonin S2 (5-HT2) receptors in membranes from rat is determined in vitro. Method in Hyttel, Pharmacology & Toxicology, 61, 126-129. 1987.
Male Wistar (Mol:Wist) rats (125-250 g) are sacrifices and cortical tissue is dissected and weighed. The tissue is homogenized (Ultra Turrax, 10 sec.) in 10 ml of ice-cold 50 mM tris buffer pH 7.7 (at 25° C.). The centrifuge glassware used in this step has been rinsed by sonication for 10 min. in ethanol. The homogenate is centrifuged twice at 20,000 g for 10 min. at 4° C. with rehomogenization of the pellet in 10 ml ice-cold buffer. The final pellet is homogenized in 500 vol (w/v) ice-cold buffer.
(§1) Incubation tubes kept on ice in triplicate receive 100 μl of drug solution in water (or water for total binding) and 2000 μl of tissue suspension (final tissue content corresponds to 4 mg original tissue). […] After shaking for 1 h and storage 2 hrs in the dark the content of radioactivity is determined by liquid scintillation counting. […]
(§2) The measured cpm are plotted against drug concentration on semilogarithmic paper and the best fitting S-shaped curve is drawn. […]

Protein sequences, listed by entry. Tags and fused reporters are not part of them.
UniProt P14842, whole entry: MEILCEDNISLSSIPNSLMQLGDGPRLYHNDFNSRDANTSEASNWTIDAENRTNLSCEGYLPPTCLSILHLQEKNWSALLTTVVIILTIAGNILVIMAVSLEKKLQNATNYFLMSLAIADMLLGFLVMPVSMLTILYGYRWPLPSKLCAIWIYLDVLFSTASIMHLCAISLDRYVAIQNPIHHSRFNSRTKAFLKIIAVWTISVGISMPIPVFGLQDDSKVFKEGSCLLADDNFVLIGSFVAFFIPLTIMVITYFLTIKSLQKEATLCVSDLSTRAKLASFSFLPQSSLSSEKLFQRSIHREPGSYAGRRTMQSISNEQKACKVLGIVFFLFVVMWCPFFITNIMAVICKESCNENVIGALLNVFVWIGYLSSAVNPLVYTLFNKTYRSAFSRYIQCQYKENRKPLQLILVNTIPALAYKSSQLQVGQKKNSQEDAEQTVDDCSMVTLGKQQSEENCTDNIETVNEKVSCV
UniProt P61169, whole entry: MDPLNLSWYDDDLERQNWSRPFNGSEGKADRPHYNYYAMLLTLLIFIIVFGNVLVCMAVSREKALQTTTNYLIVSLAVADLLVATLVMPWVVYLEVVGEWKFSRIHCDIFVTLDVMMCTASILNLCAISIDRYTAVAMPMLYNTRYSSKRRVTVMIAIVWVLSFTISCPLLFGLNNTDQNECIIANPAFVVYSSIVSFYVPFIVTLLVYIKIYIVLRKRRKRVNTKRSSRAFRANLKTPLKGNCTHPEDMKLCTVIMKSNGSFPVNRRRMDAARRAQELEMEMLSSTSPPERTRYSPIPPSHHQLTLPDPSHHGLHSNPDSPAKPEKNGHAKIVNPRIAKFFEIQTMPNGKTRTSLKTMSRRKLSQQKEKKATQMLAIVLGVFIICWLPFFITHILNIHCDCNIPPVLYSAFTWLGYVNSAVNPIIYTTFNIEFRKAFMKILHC

[2] = biological target: T2, dopamine D-2 receptors (Rattus norvegicus, UniProt P61169); assay: inhibition of 3H-spiperone binding to dopamine D-2 receptors in rat corpus striatum in vitro; conditions: 3H-spiperone 0.5 nM, rat corpus striatum membranes, read-out: Binding IC50, 3H Spi.
T2 construct: striatal tissue is dissected and weighed; from tissue; host or cells: corpus striatum membranes of male Wistar rats
Method: INHIBITION OF ^3 H-SPIPERONE BINDING TO DOPAMINE D-2 RECEPTORS IN RAT CORPUS STRIATUM IN VITRO
By this method the inhibition by drugs of the binding of ^3 H-spiperone (0.5 nM) to dopamine D-2 receptors in membranes from rat corpus striatum is determined in vitro. Method and results in Hyttel and Larsen, J. Neurochem, 44, 1615-1622, 1985).
Male Wistar (Mol:Wistar) rats (125-250 g) are sacrificed and striatal tissue is dissected and weighed. The tissue is homogenized (Ultra Turrax, 10 sec.) in 10 ml of ice-cold 50 mM K-phosphate buffer pH 7.4 (at 25° C.). The homogenate is centrifuged twice at 20,000 g for 10 min. at 4° C. with rehomogenization of the pellet in 10 ml ice-cold buffer. The final pellet is homogenized in 1300 vol (w/v) ice-cold buffer.
as §1, with “4000” for “2000”, “3.08” for “4”, “tissue). The binding experimental is initiated by addition of 100 μl of ^3 H-spiperone (final concentration 0.5 nM) and by placing the tubes in a 37° C. water bath.” for “tissue).”
as §2

SMILES: O=C1NCCN1CCN1CCC(c2cn(-c3ccc(F)cc3)c3ccc(Cl)cc23)CC1 [sertindole (Lu 23-174), 5-chloro-1-(4-fluorophenyl)-3-[1-[2-(2-imidazolidinon-1-yl)ethyl]-4-piperidyl]-1H-indole, reference compound]
- pIC50 [1]: 9.14
- pIC50 [2]: 8.39

From patent US5216001A, “Indole derivatives” (H. Lunbeck A/S, priority 1990, dated 1993)
